The subject of the experiment is cancer patients with multiple tumor types. The experiment in a line: Phase I clinical studies, preliminary evidence of effectiveness in cancer patients. As to conditions: human, in vivo. From the text: Evidence of anti-tumor activity can also be seen in the patients with ovarian cancer in the on-going Phase II study.

The values below come from patent US6900221B1, “Stable polymorph on N-(3-ethynylphenyl)-6, 7-bis (2methoxyethoxy)-4-quinazolinamine hydrochloride, methods of production, and pharmaceutical uses thereof” (OSI Pharmaceuticals, Inc., priority 1999, dated 2005).

Turning to `C#Cc1cccc(Nc2ncnc3cc(OCCOC)c(OCCOC)cc23)c1.Cl` [polymorph B, N-(3-ethynylphenyl)-6,7-bis(2-methoxyethoxy)-4-quinazolinamine hydrochloride], the “anti-tumor activity in other EGFR positive tumor types” value is on record as “Documented evidence of anti-tumor activity”.
